Consider 1 substance from US20250283871A1, “COMPOSITIONS AND METHODS FOR MODULATING THE INTERACTION BETWEEN SS18-SSX FUSION ONCOPROTEIN AND NUCLEOSOMES” (Dana-Farber Cancer Institute, Inc., priority 2020, published 2025).

Experiment [1] concerns the target HEK-293T mononucleosomes with histone H4(4to17)K12ac1K16ac1me0 (mammalian (HEK-293T cells)) (UniProt P62805). As to the kind of experiment: MBP-SSX1 78aa pull-down of HEK293T mononucleosomes, targeted quantitative histone MS, replicate 2.
Experiment [2] has as its target HEK-293T mononucleosomes with histone H4(4to17)K8ac1K12ac1K16ac1me0 (mammalian (HEK-293T cells)) (UniProt P62805). Described as above.
The target in experiment [3] is HEK-293T mononucleosomes with histone H4(4to17)K5ac1K8ac1K12ac1K16ac1me0 (mammalian (HEK-293T cells)) (UniProt P62805). The experiment is described as above.
Experiment [4] addresses HEK-293T mononucleosomes with histone H3K9me2S10ph1K14ac0 (mammalian (HEK-293T cells)) (UniProt P68431). Described as above.
Experiment [5] concerns the target HEK-293T mononucleosomes with histone H4(20to23)K20me0 (mammalian (HEK-293T cells)) (UniProt P62805). The experiment is described as above.
For experiment [6], the target named is HEK-293T mononucleosomes with histone H4(20to23)K20me2 (mammalian (HEK-293T cells)) (UniProt P62805). Described as above.
Experiment [7] concerns the target HEK-293T mononucleosomes with histone H4(4to17)K5ac1K8ac1me0 (mammalian (HEK-293T cells)) (UniProt P62805). The description is as above.
The target in experiment [8] is HEK-293T mononucleosomes with histone H3K4me3 (mammalian (HEK-293T cells)) (UniProt P68431). The description is as above.
The target of experiment [9] is HEK-293T mononucleosomes with histone H4(4to17)K12ac1me0 (mammalian (HEK-293T cells)) (UniProt P62805). The description is as above.
Experiment [10] deals with HEK-293T mononucleosomes with histone H4(20to23)K20me3 (mammalian (HEK-293T cells)) (UniProt P62805). Described as above.
Experiment [11] addresses HEK-293T mononucleosomes with histone H4(4to17)K16ac1me0 (mammalian (HEK-293T cells)) (UniProt P62805). The experiment is described as above.
Experiment [12] concerns the target HEK-293T mononucleosomes with histone H2AZ(1to19)K4ac1 (mammalian (HEK-293T cells)) (UniProt P0C0S5). The description is as above.
The target in experiment [13] is HEK-293T mononucleosomes with histone H3K9me2S10ph1K14ac1 (mammalian (HEK-293T cells)) (UniProt P68431). Described as above.
Experiment [14] concerns the target HEK-293T mononucleosomes with histone H3K4me1 (mammalian (HEK-293T cells)) (UniProt P68431). The description is as above.
The target of experiment [15] is HEK-293T mononucleosomes with histone H4(4to17)K5ac1K8ac1K12ac1me0 (mammalian (HEK-293T cells)) (UniProt P62805). Described as above.
Experiment [16] concerns the target HEK-293T mononucleosomes with histone H3K4ac1 (mammalian (HEK-293T cells)) (UniProt P68431). Described as above.
In experiment [17] the target is HEK-293T mononucleosomes with histone H3K4me0 (mammalian (HEK-293T cells)) (UniProt P68431). Described as above.
Experiment [18] addresses HEK-293T mononucleosomes with histone H2AZ(1to19)ac0 (mammalian (HEK-293T cells)) (UniProt P0C0S5). Described as above.
For experiment [19], the target named is HEK-293T mononucleosomes with histone H2A(4to11)K5ac1K9ac1 (mammalian (HEK-293T cells)) (UniProt P0C0S8). The description is as above.
Experiment [20] has as its target HEK-293T mononucleosomes with histone H4(4to17)K8ac1K12ac1me0 (mammalian (HEK-293T cells)) (UniProt P62805). The experiment is described as above.
Experiment [21] has as its target HEK-293T mononucleosomes with histone H3K9me3S10ph1K14ac0 (mammalian (HEK-293T cells)) (UniProt P68431). The description is as above.
Experiment [22] concerns the target HEK-293T mononucleosomes with histone H4(4to17)K5ac1K8ac1K16ac1me0 (mammalian (HEK-293T cells)) (UniProt P62805). Described as above.
Experiment [23] concerns the target HEK-293T mononucleosomes with histone H4(4to17)K5ac1K8ac1me0 (mammalian (HEK-293T cells)) (UniProt P62805). Briefly: MBP-SSX1 78aa pull-down of HEK293T mononucleosomes, targeted quantitative histone MS, replicate 1.
For experiment [24], the target named is HEK-293T mononucleosomes with histone H3K4me3 (mammalian (HEK-293T cells)) (UniProt P68431). Described as above.

As to “MBP-SSX1 (78aa) (from UniProt P0AEX9 27-392)”, the log2 (Light/Heavy) ratio normalized to average of pull down input controls was -0.105 log2 in [1]; -0.309 log2 in [2]; -0.629 log2 in experiment [3]; 0.892 log2 in experiment [4]; 0.14 log2 in experiment [5]; 0.047 log2 in experiment [6]. For the same substance, the log2 (Light/Heavy) ratio normalized to average of pull down input controls was -0.448 log2 in [7]; -0.511 log2 in experiment [8]; -0.225 log2 in experiment [9]; -0.131 log2 in experiment [10]; -0.106 log2 in experiment [11]; -0.894 log2 in experiment [12]. The log2 (Light/Heavy) ratio normalized to average of pull down input controls is 1.01 log2 in experiment [13]; -0.097 log2 in experiment [14]; -0.387 log2 in experiment [15]; -0.255 log2 in experiment [16]; 0.304 log2 in experiment [17]; -0.608 log2 in experiment [18]. For the same substance, the log2 (Light/Heavy) ratio normalized to average of pull down input controls in experiment [19] was 0.032 log2; in experiment [20] it was -0.143 log2; in [21], -0.24 log2; in experiment [22], -0.537 log2; in experiment [23] it was -0.436 log2; in experiment [24], -0.25 log2.
